# scFv variants of Ab-95 (light chain) against a SARS-CoV-2 spike peptide

Reference: Engelhart et al. 2022, doi:10.1038/s41597-022-01779-4. File: FLAb, binding data.

All variants were tested on one target, the spike HR2 peptide PDVDLGDISGINAS (SARS-CoV-2).

Each scFv is VH, the linker GGGGSGGGGSGGGGS, VL, as in the parent Ab-95, and differs from it in the CDRs of the light chain only.
VH: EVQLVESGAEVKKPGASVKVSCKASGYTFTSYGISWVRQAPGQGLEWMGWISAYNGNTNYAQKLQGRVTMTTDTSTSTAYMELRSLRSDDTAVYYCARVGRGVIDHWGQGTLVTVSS
VL: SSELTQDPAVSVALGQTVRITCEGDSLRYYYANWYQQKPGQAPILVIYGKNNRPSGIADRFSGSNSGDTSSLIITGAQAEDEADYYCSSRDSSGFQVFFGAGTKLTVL

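Phage display of a naive human antibody library on the peptide gave the parent. In library AAYL52, one, two or three CDR residues were substituted; doubles and triples were drawn at random. Affinity was read by AlphaSeq, a pooled yeast mating assay with surface-displayed partners. Pairs that bind mate more often; barcode pairs of the diploids are counted by sequencing. Each replicate has its own calibration line, from reference interactions of the BCL2 family. Mating was done three times.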

The parent's light chain CDRs are EGDSLRYYYAN, GKNNRPS, SSRDSSGFQVF; each variant's own CDRs replace them letter for letter. All variants listed here change S26 of the VL, counted from its first residue. Scale: log10 of Kd in nM, estimated from mating counts; low values are strong binders. Averages over replicates are reported, and they cover detected replicates only. An entry "no signal" has no value in the source: the pair was not observed among the diploids in any replicate. This suggests poor binding but is not conclusive. In this assay the parent's reference entry averaged 2.31; its copy inside this library read 2.25. Empty control strains, which show no peptide, gave a signal in 28% of pairings with library AAYL52; the median was 3.91 and 95% of these signals were weaker than 2.90. No background was subtracted.

With EGDNLRYYYAN / GKNNRPW / SSRDSSGFQVE the result was 3.17 (3 of 3 replicates). For SGDGLRYYYAN / GKNNRPS / SWRDSSGFQVF, the assay gave 2.02 (3 of 3 replicates). The variant EGDWLRYYYAN / PKNNRPS / SSRDSQGFQVF gave 4.82 (1 of 3 replicates). For EGDRLLYYYMN / GKNNRPS / SSRDSSGFQVF, the assay gave 3.95 (2 of 3 replicates). For EGDTIRYYYAK / GKNNRPS / SSRDSSGFQVF, the assay gave 2.38 (3 of 3 replicates). For MGDILRYYYAN / GKNNRFS / SSRDSSGFQVF, the assay gave 3.83 (2 of 3 replicates). For EGDDLMYYYAN / GKNNRPS / SSRDCSGFQVF, the assay gave 4.50 (3 of 3 replicates). The variant EGDLLRYMYAN / GKNNRPS / SSRDSSGFQVF showed 3.07 (3 of 3 replicates).

The variant EGDVLRYYYAN / GKNPRPS / SSLDSSGFQVF showed no signal (0 of 3 replicates). The variant EGDELRYYYAN / GKNNRPS / LSRDSSGFQYF gave no signal (0 of 3 replicates). The variant EGDILRYYYAN / GKNNRPS / SSRDSSGCPVF gave 3.79 (2 of 3 replicates). The variant EGDVLRYYYAN / GKNNRCS / SSRDSSGFQVF showed no signal (0 of 3 replicates). With EHTQLRYYYAN / GKNNRPS / SSRDSSGFQVF the result was 2.41 (3 of 3 replicates). The variant EGDMLRYYYAN / GKNNRPS / SSRDSSGFQVF gave 3.02 (3 of 3 replicates). The variant EGDFLDYYYAN / GKNNRPS / SSRDSSGFQVS gave 4.81 (1 of 3 replicates). The variant EGDELRYYYAN / GKCNRPS / SSRDSSGVQVF showed 3.48 (1 of 3 replicates).

With EGDCLRYYYAN / GKNNRPS / SSRRCSGFQVF the result was 4.42 (1 of 3 replicates). The variant EGDDLRYYYAN / DKNNRPR / SSRDSSGFQVF showed no signal (0 of 3 replicates). With EGDDLMYYYAN / GKNNRPS / SSRDSSGFQTF the result was 3.26 (2 of 3 replicates). The variant ELDTLRYYYAN / GKNNRPS / SSRDSSGFQDF showed 4.33 (2 of 3 replicates). The variant EGDDLRYYYAN / GKNNRPS / SSIDSSDFQVF showed 3.17 (1 of 3 replicates). With EGDALRYYYAN / GKNNRPS / SSRDSSGFQVA the result was 3.00 (2 of 3 replicates). For EGDQLRYYYAN / GKNNRPS / LSRDSSGFQCF, the assay gave 4.32 (2 of 3 replicates). With EGDKFRYYYAN / GKNNRPS / SSRDSSCFQVF the result was 2.58 (3 of 3 replicates).

The variant EGDVLRYYYAN / GKNNRPS / STRDSSGFQVT showed 3.29 (1 of 3 replicates). The variant EGDFLRYYYAN / RKNNRPS / SSRTSSGFQVF showed 4.27 (3 of 3 replicates). For EGDWLRYYYAN / GKNNRPS / SSRDSSGFQVF, the assay gave 2.64 (3 of 3 replicates). For EGDMLRYYYRN / GKNNRPS / SSVDSSGFQVF, the assay gave 3.79 (2 of 3 replicates). The variant EGDNLRKYYAN / GKNNRPS / SSRDSSGFQVF gave 3.57 (2 of 3 replicates). The variant EGDRLRYYYAN / GMNNRPS / SSRDSSGFQVL gave 5.63 (1 of 3 replicates). For EGWCLRYYYAN / PKNNRPS / SSRDSSGFQVF, the assay gave 5.00 (1 of 3 replicates). For EGDILRYYYAN / GKNNRPS / SSRDSSGFQPF, the assay gave 2.85 (1 of 3 replicates).

With EGDVLRYYYAN / GKNSRPS / SSQDSSGFQVF the result was 5.36 (1 of 3 replicates). With EGDLLRYYYAV / GKNNRPS / SSRDSSWFQVF the result was 3.61 (2 of 3 replicates). The variant EGDNLWYYYAK / GKNNRPS / SSRDSSGFQVF showed no signal (0 of 3 replicates). With EGDKLRYYYAN / PKNNRPS / SSRDSSGFKVF the result was 3.50 (2 of 3 replicates).